# Patent US20120108947A1, “METHOD FOR PREDICTING WEIGHT GAIN ASSOCIATED WITH A PHARMACEUTICAL THERAPY” (priority 2009, published 2012)
# Details: in vivo
smiles,measurement,value
"Cc1cc2c(s1)Nc1ccccc1N=C2N1CCN(C)CC1 [olanzapine, 2-methyl-4-(4-methyl-1-piperazinyl)-10H-thieno[2,3-b][1,5]benzodiazepine]","TRL V6 change from baseline, response predictive of weight gain",6.5 mg/dL
same,"TRL V6 change from baseline, subject with less risk",0.38 mg/dL
same,"TRL V6 fold increase, subject with less risk",1.1 fold
same,"TRL V6 response predictive of treatment emergent weight gain, % increase",approximately 360%
same,"TRL V6 response predictive of treatment emergent weight gain, fold increase",~3.6 fold
